# Results from PubChem BioAssay AID488965 (Broad Institute, 2010).
# In all, about 340,000 compounds went through this assay and about 210 (0.062%) were called active. Listed are the inconclusive results; actives and inactives stand elsewhere. Cut-off read from the data, not from the text of the source: active = inhibition above about 30% (passing the limit was not always enough); inconclusive = no clear call, values can overlap the other calls.
# System: PvdQ acylase [Pseudomonas aeruginosa LESB58]
# Assay: P. aeruginosa PvdQ acylase inhibitors, primary screen, biochemical, fluorescence, plate reader and imaging, single point (AID 488965);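 note: 0% = vehicle neutral wells and 100% = reference inhibitor wells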
# Conditions: purified PvdQ acylase, at 10 µM, hits give high values
row,Compound,inhibition
1,O=[N+]([O-])c1cccc(NC2=NCC(CBr)S2)c1 (stereo unspecified),inconclusive: 30.1%
